Measurements published in PubChem BioAssay AID624417 (National Center for Advancing Translational Sciences (NCATS), 2012).
This is a selection; strong and weak results do not stand in their true shares. Results filed as inconclusive are left out. A call without a number means that no potency is given here. Some structures show a salt or complex split into parts, the way the source records it. Calls of active or inactive are those of the source. Calls come from the whole dose curve; as a rule, active = well fitted inhibition curve with a large enough effect; inconclusive = small, poorly fitted or top-dose-only effect; inactive = no such curve, though single readings can be large or run the other way.
Note: nearly all actives have a fitted effect of over 55% in size.
Potency is the fitted concentration of half-maximal effect.

Sequences of proteins named here, by UniProt entry; tags and fusion partners are left off.
UniProt P43220, whole entry: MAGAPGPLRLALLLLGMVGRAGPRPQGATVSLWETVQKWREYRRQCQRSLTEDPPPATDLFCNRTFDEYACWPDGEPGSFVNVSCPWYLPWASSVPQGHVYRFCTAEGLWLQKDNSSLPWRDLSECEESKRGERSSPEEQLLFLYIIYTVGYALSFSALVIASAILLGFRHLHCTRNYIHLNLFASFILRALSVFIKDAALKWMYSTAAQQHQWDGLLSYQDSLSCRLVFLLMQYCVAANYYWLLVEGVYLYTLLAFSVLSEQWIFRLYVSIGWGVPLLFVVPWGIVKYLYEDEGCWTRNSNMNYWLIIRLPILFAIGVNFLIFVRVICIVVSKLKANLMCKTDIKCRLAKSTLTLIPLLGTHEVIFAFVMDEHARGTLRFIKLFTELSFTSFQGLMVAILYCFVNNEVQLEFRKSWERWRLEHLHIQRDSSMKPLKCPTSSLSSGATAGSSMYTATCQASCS

These compounds were tested against Glucagon-like peptide 1 receptor (Homo sapiens) (UniProt P43220) (assay: qHTS of GLP-1 Receptor Inverse Agonists (Inhibition Mode)). Details: HEK293 GLP-1R CRE-luciferase, luminescence, 24 h, GLP-1R form is constitutively active; series mostly up to 38.3 µM.
For `O=C(NCC1(N2CCOCC2)CCCCC1)c1ccc([N+](=O)[O-])cc1`, the Potency was “inactive”. `N#Cc1ccc(C(=O)NCC2(N3CCCCC3)CCCCC2)cc1` was tested, and the Potency was “inactive”. `O=C(NCC1(N2CCOCC2)CCCCC1)c1ccccc1[N+](=O)[O-]` was tested, and the Potency was “inactive”. For `CCOC(=O)C(CC)C1=NC(C)(C)Cc2ccccc21.O=[N+]([O-])c1cc([N+](=O)[O-])c(O)c([N+](=O)[O-])c1` (stereo not given), the Potency was “inactive”. For `O=C(NCC1(N2CCOCC2)CCCCC1)c1ccccc1`, the Potency was “inactive”. In the case of `Cc1cc(N(CCCl)CCCl)ccc1C=O`, the Potency is reported as “inactive”. In the case of `O=c1[nH]c2ccccc2n1C1CCN(C(c2ccccc2)c2nnnn2C2CCCC2)CC1` (stereo not given), the Potency is reported as “inactive”. `c1ccc(CN2CCC(Nc3ccccc3)CC2)cc1` was tested, and the Potency was “inactive”. In the case of `CN(C)C1(CNC(=O)c2cccc(C#N)c2)CCCCC1`, the Potency is reported as “inactive”. With `CCCCn1nnnc1C(c1ccccc1)N1CCC(n2c(=O)[nH]c3ccccc32)CC1` (stereo not given) the Potency was “inactive”. With `O=c1[nH]c2ccccc2n1C1CCN(C(c2ccnc3ccccc23)c2nnnn2C2CCCC2)CC1` (stereo not given) the Potency was “inactive”. `COc1ccc(C(=O)NCC2(N3CCOCC3)CCCCC2)cc1OC` was tested, and the Potency was “inactive”. For `N/C(=N\O)c1c(N)no[n+]1[O-]`, the Potency was “inactive”. `CCOC(=O)N1CCC(Nc2ccc(C)cc2)CC1` was tested, and the Potency was “inactive”. With `COc1cccc(C(c2nnnn2C(C)(C)C)N2CCC(n3c(=O)[nH]c4ccccc43)CC2)c1OC` (stereo not given) the Potency was “inactive”. For `O=C(O)c1cccc(Nc2c([N+](=O)[O-])cc([N+](=O)[O-])cc2[N+](=O)[O-])c1`, the Potency was “inactive”. For `CCOc1ncccc1C(=O)NCC1(N2CCOCC2)CCCCC1`, the Potency was “inactive”. For `O=C(O)C1(Nc2ccccc2)CCN(Cc2ccccc2)CC1`, the Potency was “inactive”. With `NN(c1ccccc1)C1CCN(CCc2ccccc2)CC1` the Potency was “inactive”. For `CCC(CO)(C(=O)OC1CN2CCC1CC2)c1ccccc1` (stereo not given), the Potency was “inactive”. For `COc1cc(OC)cc(C(=O)NCC2(N3CCOCC3)CCCCC2)c1`, the Potency was “inactive”. For `COc1cc(C(=O)NCC2(N3CCOCC3)CCCCC2)cc(OC)c1OC`, the Potency was “inactive”. `CN1CCC(Nc2ccc(Cl)cc2)CC1` was tested, and the Potency was “inactive”. `COc1cc(OC)cc(C(=O)NCC2(N3CCCCC3)CCCCC2)c1` was tested, and the Potency was “inactive”. In the case of `O=c1[nH]c2ccccc2n1C1CCN(C(c2ccnc3ccccc23)c2nnnn2C2CCCCC2)CC1` (stereo not given), the Potency is reported as “inactive”. For `CCC(c1nnnn1C1CCCCC1)N1CCC(n2c(=O)[nH]c3ccccc32)CC1` (stereo not given), the Potency was “inactive”. In the case of `CC(=O)N(c1ccccc1)C1CCNCC1`, the Potency is reported as “inactive”. With `Cc1ccc(NC2(C#N)CCN(Cc3ccccc3)CC2)cc1` the Potency was “inactive”. In the case of `Fc1ccccc1NC1CCN(Cc2ccccc2)CC1`, the Potency is reported as “inactive”. In the case of `Cc1ccc(Nc2c([N+](=O)[O-])cc([N+](=O)[O-])cc2[N+](=O)[O-])cc1`, the Potency is reported as “inactive”. For `Cc1ccc(C(=O)NCC2(N3CCCCC3)CCCCC2)o1`, the Potency was “inactive”. In the case of `CCN1CCC(Nc2cccc(F)c2)CC1`, the Potency is reported as “inactive”. With `COc1ccc(C(c2nnnn2C2CCCCC2)N2CCC(n3c(=O)[nH]c4ccccc43)CC2)cc1` (stereo not given) the Potency was “inactive”. In the case of `CC(C)(C)n1nnnc1C(c1ccnc2ccccc12)N1CCC(n2c(=O)[nH]c3ccccc32)CC1` (stereo not given), the Potency is reported as “inactive”. For `Cc1ccccc1NC1(C#N)CCN(Cc2ccccc2)CC1`, the Potency was “inactive”. `CN(C)c1ccc(C(=O)NCC2(N3CCCCC3)CCCCC2)cc1` was tested, and the Potency was “inactive”. `Cn1c(=O)[nH]cc(N(CCCl)CCCl)c1=O` was tested, and the Potency was “inactive”. In the case of `O=C(NCC1(N2CCCCC2)CCCCC1)c1ccco1`, the Potency is reported as “inactive”. `CC(C)(C)c1ccc(C(=O)NCC2(N3CCOCC3)CCCCC2)cc1` was tested, and the Potency was active: 8.91 µM. `Cc1ccccc1C(=O)NCC1(N(C)C)CCCCC1` was tested, and the Potency was “inactive”. With `CCOc1ccc(C)cc1CN(CCCl)CCCl` the Potency was “inactive”. For `O=C1CCN(Cc2ccccc2)CC1`, the Potency was “inactive”. `CC(C)(C)n1nnnc1C(c1ccccc1)N1CCC(n2c(=O)[nH]c3ccccc32)CC1` (stereo not given) was tested, and the Potency was “inactive”. `O=C(NCC1(N2CCOCC2)CCCCC1)c1ccc(Cl)cc1` was tested, and the Potency was “inactive”. In the case of `COc1ccc(NC2CCN(CCc3ccccc3)CC2)c(OC)c1`, the Potency is reported as “inactive”. `CCOC(=O)N1CCC(Nc2ccc(F)cc2)CC1` was tested, and the Potency was “inactive”. With `O=P1(N(CCCl)CCCl)SCCCS1` the Potency was “inactive”. For `CCCCOc1ccc(C(=O)NCC2(N3CCOCC3)CCCCC2)cc1`, the Potency was “inactive”. `O=C(NCC1(N2CCCCC2)CCCCC1)c1ccc(F)cc1` was tested, and the Potency was “inactive”. `COc1ccccc1C(=O)NCC1(N2CCOCC2)CCCCC1` was tested, and the Potency was “inactive”. In the case of `O=c1[nH]c2ccccc2n1C1CCN(C(c2ccccc2)c2nnnn2C2CCCCC2)CC1` (stereo not given), the Potency is reported as “inactive”. With `CCOC(=O)N1CCC(Nc2cccc(C)c2)CC1` the Potency was “inactive”. `COc1cc(C(=O)NCC2(N(C)C)CCCCC2)ccc1OC(F)F` was tested, and the Potency was “inactive”. In the case of `O=C(NCC1(N2CCCCC2)CCCCC1)c1cccs1`, the Potency is reported as “inactive”. `CCCCn1nnnc1C(CC)N1CCC(n2c(=O)[nH]c3ccccc32)CC1` (stereo not given) was tested, and the Potency was “inactive”. For `O=C(NCC1(N2CCCCC2)CCCCC1)c1ccc(=O)[nH]c1`, the Potency was “inactive”. `CC(C)(C)OC(=O)N1CCC(N(C(=O)c2ccccc2)c2ccc(F)cc2)CC1` was tested, and the Potency was “inactive”. With `COc1ccc(C(=O)NCC2(N3CCCCC3)CCCCC2)c(OC)c1OC` the Potency was “inactive”. In the case of `CCC(c1nnnn1C1CCCC1)N1CCC(n2c(=O)[nH]c3ccccc32)CC1` (stereo not given), the Potency is reported as “inactive”. `COc1ccc(C(=O)NCC2(N3CCCCC3)CCCCC2)cc1` was tested, and the Potency was “inactive”. For `Cc1cccc(NC2(C#N)CCN(Cc3ccccc3)CC2)c1`, the Potency was “inactive”. With `CSc1ccccc1C(=O)NCC1(N2CCCCC2)CCCCC1` the Potency was “inactive”. `Cc1cc(C)cc(N(C(=O)c2ccccc2)C2CCN(C(=O)OC(C)(C)C)CC2)c1` was tested, and the Potency was active: 5.01 µM. With `O=C(NCC1(N2CCCCC2)CCCCC1)c1ccc(Cl)nc1` the Potency was “inactive”. In the case of `O=c1[nH]c2ccccc2n1C1CCN(C(c2ccccc2OC(F)(F)F)c2nnnn2C2CCCCC2)CC1` (stereo not given), the Potency is reported as “inactive”. With `CCCCn1nnnc1C(c1ccc(OC)cc1)N1CCC(n2c(=O)[nH]c3ccccc32)CC1` (stereo not given) the Potency was “inactive”. In the case of `CCOC(=O)N1CCC(Nc2ccc(OC)cc2)CC1`, the Potency is reported as “inactive”. `O=C1C(O)=C([N+](=O)[O-])C(=O)C(O)=C1[N+](=O)[O-]` was tested, and the Potency was “inactive”. With `N#CC1(Nc2ccccc2)CCN(Cc2ccccc2)CC1` the Potency was “inactive”. For `O=C(NCC1(N2CCCCC2)CCCCC1)c1ccc(Cl)s1`, the Potency was “inactive”. In the case of `O=c1[nH]c2ccccc2n1C1CCN(C(c2cc3ccccc3o2)c2nnnn2C2CCCCC2)CC1` (stereo not given), the Potency is reported as “inactive”. `O=[N+]([O-])c1cc([N+](=O)[O-])c(OC2CCCCC2O)c([N+](=O)[O-])c1` (stereo not given) was tested, and the Potency was “inactive”. For `CN(C)c1cccc(C(=O)NCC2(N3CCCCC3)CCCCC2)c1`, the Potency was “inactive”. For `COc1ccc(CN(CCCl)CCCl)cc1Cl`, the Potency was “inactive”. For `CCCCn1nnnc1C(c1ccnc2ccccc12)N1CCC(n2c(=O)[nH]c3ccccc32)CC1` (stereo not given), the Potency was “inactive”. For `CCC(c1nnnn1C(C)(C)C)N1CCC(n2c(=O)[nH]c3ccccc32)CC1` (stereo not given), the Potency was “inactive”. In the case of `COc1cc(OC)c(C(=O)NCC2(N(C)C)CCCCC2)cc1OC`, the Potency is reported as “inactive”. With `CN1CCC(Nc2cccc(F)c2)CC1` the Potency was “inactive”. `COc1ccc2c(c1O)-c1c(O)c(OC)cc3c1[C@H](C2)[N+](C)(C)CC3.O=[N+]([O-])c1cc([N+](=O)[O-])c([O-])c([N+](=O)[O-])c1[O-]` was tested, and the Potency was “inactive”. For `O=C(NCC1(N2CCCCC2)CCCCC1)c1cncc(Br)c1`, the Potency was “inactive”. With `O=C(OC1CN2CCC1CC2)c1ccc([N+](=O)[O-])cc1` (stereo not given) the Potency was “inactive”. With `O=C(NCC1(N2CCOCC2)CCCCC1)c1ccccc1Br` the Potency was “inactive”. For `CCCOc1ccc(C(=O)NCC2(N(C)C)CCCCC2)cc1OC`, the Potency was “inactive”. With `Cc1ccc(C(=O)NCC2(N(C)C)CCCCC2)o1` the Potency was “inactive”. `O=[N+]([O-])c1cc([N+](=O)[O-])c(Nc2ccc(Cl)cc2)c([N+](=O)[O-])c1` was tested, and the Potency was “inactive”. For `O=C(NCC1(N2CCCCC2)CCCCC1)c1ccc(OC(F)F)cc1`, the Potency was “inactive”. In the case of `O=C(NCC1(N2CCCCC2)CCCCC1)c1cccc([N+](=O)[O-])c1`, the Potency is reported as “inactive”. In the case of `CCOc1ccc(C(=O)NCC2(N3CCOCC3)CCCCC2)cc1`, the Potency is reported as “inactive”. In the case of `N#CC1(Nc2ccccc2)CCN(CCc2ccccc2)CC1`, the Potency is reported as “inactive”. For `O=C(NCC1(N2CCCCC2)CCCCC1)c1cccc(C(F)(F)F)c1`, the Potency was “inactive”. For `O=[N+]([O-])c1cc([N+](=O)[O-])c(NCC2CCS(=O)(=O)C2)c([N+](=O)[O-])c1` (stereo not given), the Potency was “inactive”. In the case of `CN1CCN(CCOC(=O)C(O)(c2ccccc2)c2ccccc2)CC1`, the Potency is reported as “inactive”. `COc1ccc(NC2CCN(C(=O)OC(C)(C)C)CC2)cc1` was tested, and the Potency was “inactive”. With `COc1cc(C(=O)NCC2(N3CCCCC3)CCCCC2)ccc1OC(F)F` the Potency was “inactive”. In the case of `O=C(NCC1(N2CCOCC2)CCCCC1)c1cc(=O)[nH]c2ccccc12`, the Potency is reported as “inactive”.
